# Laboratory results as given in BindingDB's records for doi:10.1021/jm950498t (Virginia Commonwealth University, 1996).
# Assay: Binding affinity towards 5-hydroxytryptamine 1D receptor was determined in calf striatum homogenate
compound,measurement,value
COc1ccc2[nH]cc(CCN(C)C)c2c1 [3-(2-DIMETHYLAMINOETHYL)-5-METHOXYINDOLE],Ki,20 nM
